Apparent affinities of Ab-14 variants for a coronavirus HR2 peptide

Values reported by Li et al. 2023, doi:10.1038/s41467-023-39022-2 (FLAb copy).

All variants were tested on one target, the spike HR2 peptide PDVDLGDISGINAS (SARS-CoV-2).

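The starting antibody came from a phage panning campaign against this peptide. These sequences belong to a second round, designed from the earlier measurements on random variants of the parent. Group labels follow the data file (Ctrl: baseline library sampled from a position-specific scoring matrix, with some repeated check sequences; En: ensemble of fine-tuned language models; GP: Gaussian process model; GPLM: also part of the Gaussian process libraries; HC: hill climbing; Gen: genetic algorithm; Gibbs: Gibbs sampling; a sequence that several methods proposed may carry one label only). The assay is AlphaSeq: two haploid yeast populations carry antibody and antigen on their surface. Mating (16 h, 30 °C) was followed by selection of diploids and sequencing of their barcodes. The ratio of observed to expected reads was calibrated, replicate by replicate, on BCL2-family standards whose Kd was known from biolayer interferometry. Each pool was mated in six replicate cultures.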

Parent scFv Ab-14: VH joined to VL by a 15-residue (Gly4Ser)3 linker. Changes lie in the heavy chain CDRs alone.
VH: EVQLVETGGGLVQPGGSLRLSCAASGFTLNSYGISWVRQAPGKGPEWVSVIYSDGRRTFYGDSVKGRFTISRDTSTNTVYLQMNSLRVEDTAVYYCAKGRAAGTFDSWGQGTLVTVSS
VL: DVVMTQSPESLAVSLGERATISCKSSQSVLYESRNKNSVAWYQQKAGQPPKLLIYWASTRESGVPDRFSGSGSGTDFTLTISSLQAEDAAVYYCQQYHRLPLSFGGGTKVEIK

Each variant is given by its three heavy chain CDRs, as the data file delimits them; those of the parent are GFTLNSYGIS, VIYSDGRRTFYGDSVK, GRAAGTFDS.
The read-out is the apparent dissociation constant on a log10 scale (nM): the lower, the stronger.
"n.d." marks a missing value. The strain was present, yet no cells mated with the target were sequenced in that replicate, which points to weak or no binding.
As a blank, each scFv also met three strains without target: over all heavy chain designs, 1% of these pairings were detected, typically at 2.08 and seldom below 0.84. Also given: how often the same scFv was detected with the empty control strains, with their mean in brackets.

CDR-H1	CDR-H2	CDR-H3	group	log10 Kd, replicates	empty controls
GFDLNSYGIS	VIYSDGRRTFYGDSVK	GRAAGTFNK	GP_HC	n.d. / 2.24 / n.d. / n.d. / 2.70 / n.d.	0/18
GFDLNEYGIS	VIYADGMRTAYADSVK	GTNAGTFDM	En_Gen	-0.40 / -0.02 / 0.07 / -0.72 / -0.88 / -0.63	0/18
GFDLNEYGIS	VIYADGRRTAYIDSVK	GNQAGTFDQ	En_HC	0.58 / -0.04 / -0.10 / -0.36 / -0.58 / -0.22	0/18
GFKLNEYGIS	VIYSDGRRTFYGDSVK	GRAAVTFDQ	GPLM_HC	0.40 / 0.82 / -0.21 / -0.95 / 1.14 / 0.25	0/18
GFDLDEYGIS	VIYADGQRTVYADSVK	GNVAGTFDV	En_Gen	0.22 / 1.02 / 0.09 / 0.43 / 0.40 / 0.11	0/18
GFNLNSYGIS	VIYSDGRRTFYADSVK	GRTAGTFDS	GPLM_Gen	0.02 / 0.22 / -0.14 / -0.28 / -0.18 / 0.37	0/18
GFSLDEYGIS	VIYADGRRTAYADSVK	GNVAGTFDV	En_HC	0.04 / -0.35 / -0.42 / -0.34 / -0.25 / 0.12	0/18
GFELNSYGIS	VIYSDGRRTFYHDSVK	GRQAGTFDS	GP_Gen	0.70 / 1.04 / 0.74 / 0.32 / 0.89 / 0.43	0/18
GFTLSSYGIS	VIYSDGRRTMYGDFVK	GRAAGTFDS	Ctrl	n.d. / n.d. / n.d. / n.d. / n.d. / n.d.	0/18
GFTLNSYGIS	VIYSDGRKTFYGDSVK	GRAALTVDS	Ctrl	n.d. / n.d. / n.d. / n.d. / n.d. / n.d.	1/18 (0.50)
GFTLNSYGIS	VIYSDGRRTFYGDSVK	GRQMGTFDD	Ctrl	n.d. / n.d. / n.d. / n.d. / n.d. / n.d.	0/18
GFDLDEYGIS	VIYADGQRTVYADSVK	GNQAGTFDV	En_Gen	0.92 / -0.34 / -0.21 / -0.33 / 0.05 / -0.04	0/18
GFDLNEYGIS	VIYADGVRKVYADSVK	GNNAGTFDV	En_Gen	-0.14 / -0.24 / -0.45 / -0.11 / -0.22 / -0.11	0/18
GFDLNEYGIS	VIYADGRRTFYLDSVK	GNLAGTFDQ	En_HC	-0.78 / -0.87 / -1.10 / -1.27 / -0.81 / -0.96	0/18
GFDLNEYGIS	VIYADGRRTFYLDSVK	GQLAGTFDM	En_HC	-0.51 / -0.77 / -0.85 / -0.56 / -0.78 / -0.37	0/18
GFNLGEYGIS	VIYADGRRTFYINSVK	GEFIVMGVD	En_Gibbs	n.d. / n.d. / n.d. / n.d. / n.d. / n.d.	0/18
GFNLNSYGIS	VIYSDGRRTFYVDSVK	GNTAGTFDS	GP_Gen	n.d. / -0.11 / 0.38 / 0.23 / -0.28 / 0.38	0/18
GFTLNSYGIS	VIYSDGRRTFYDDSVK	GQVAGKFDS	GP_HC	n.d. / n.d. / n.d. / n.d. / n.d. / n.d.	1/18 (3.01)
GFDLDEYGIS	VIYADGKRTFYADSVK	GEVAGTFDV	En_Gen	-0.15 / -0.21 / -0.47 / -0.50 / -0.39 / -0.15	1/18 (1.39)
GFDLNSYGIS	VIYSDGRRTFYKGSVK	GRAHGTFDS	Ctrl	n.d. / n.d. / n.d. / n.d. / n.d. / n.d.	0/18
GFDLNSYGIS	VIYSDGRRTFYVDSVK	GQVAGTFDS	GP_Gen	0.94 / 0.29 / 0.35 / 0.22 / -0.05 / 0.33	0/18
GFSPNSYGIS	VIYSDGRRTFYGDSVK	GRWAGTFDS	Ctrl	n.d. / n.d. / n.d. / n.d. / n.d. / n.d.	0/18
GFSLDEFGIS	VIYADGQRSAYSENVK	GQHGGFTVS	En_Gibbs	n.d. / n.d. / n.d. / n.d. / 1.39 / 2.08	0/18
GFQLNEYGIS	VIYSDGRRTFYSDSVK	GRQAGTFDS	GP_Gibbs	0.09 / 0.55 / 0.16 / -0.47 / 0.19 / 0.11	0/18
GFELNSYGIS	VIYADGRRTFYGDSVK	GHAAGTFDS	GPLM_Gibbs	0.17 / 0.37 / 1.20 / -0.19 / 0.47 / 0.41	0/18
GFDLSEYGIS	VIYADGERANYVSNFK	GVQAGTFVL	En_Gibbs	n.d. / n.d. / n.d. / n.d. / n.d. / n.d.	0/18
GFDLNEYGIS	VIYADGRRTFYADDVK	GENAGTFDV	En_Gen	-0.44 / -0.30 / -0.52 / -0.94 / -0.55 / -0.61	0/18
GFTLNSYGIS	VIYADGRRTFYGDSVK	GWAAGTFDL	GP_Gen	n.d. / 0.93 / 0.52 / 0.44 / n.d. / 0.03	0/18
GFSLDEYGIS	VIYADGQRTFYADDVK	GNVAGTFDV	En_HC	0.95 / 1.12 / 0.56 / 0.53 / 0.97 / 1.65	0/18
GFDLNEYGIS	VIYADGSRVAYAQNVK	GKNDAISSV	En_Gibbs	n.d. / n.d. / n.d. / n.d. / n.d. / n.d.	0/18
GFDLNEYGIS	VIYSDGRRTFYVDSVK	GKAAGTFDT	GP_Gibbs	0.09 / 0.12 / -0.66 / -0.44 / -0.61 / 0.52	0/18

3 of these entries, quoted again:

CDR-H1	CDR-H2	CDR-H3	group	log10 Kd, replicates	empty controls
GFSLDEYGIS	VIYADGQRTFYADDVK	GNVAGTFDV	En_HC	0.95 / 1.12 / 0.56 / 0.53 / 0.97 / 1.65	0/18
GFTLNSYGIS	VIYSDGRRTFYDDSVK	GQVAGKFDS	GP_HC	n.d. / n.d. / n.d. / n.d. / n.d. / n.d.	1/18 (3.01)
GFTLNSYGIS	VIYADGRRTFYGDSVK	GWAAGTFDL	GP_Gen	n.d. / 0.93 / 0.52 / 0.44 / n.d. / 0.03	0/18

The parent sequence was in this pool as ten entries: three were never detected, three once, and four in most replicates, with averages from 0.34 to 2.37.
The range of this assay differs from that of the first round, and the authors advise against merging the two.
The authors averaged sequences with at least three values out of six and counted those with two or fewer as poor binders.